Reference: patent US20150374673A1, “Combination Therapy for the Treatment of Nosocomial Pneumonia” (priority 2013, published 2015)

Tested on: K. pneumoniae
Experiment: Checkerboard assay, mean FICI
Type: cell-based
Procedure: All MIC determinations including those performed in the checkerboard assay were done in cation-adjusted Mueller-Hinton broth (purchased from Becton Dickinson, Oxford UK).
Initial MIC data were determined by microbroth dilution methods as recommended by CLSI (2012b). Checkerboards were made in accordance with the method given by Pillai et. al., ? Antimicrobial Combinations in Antibiotics, LABORATORY MEDICINE (Lorian Ed., 3rd Ed. (2003)) p. 365-440 as per standard microbroth dilution tests but with agents in combination. […] A final avibactam concentration of 4 mg/L was used throughout the study. Antibacterial agents were combined into microtitre plates using the Evolution III liquid handling system.
Checkerboard plates were inoculated and incubated in accordance with CLSI guidelines (2012b) at 35±2° C. in ambient air for 16-20 h. MICs were recorded the following day as the lowest concentration or combination of concentrations required to inhibit all visible growth. From the MIC data, FICIs were calculated for each checkerboard according to the method of Meletiadis et. al., Defining Fractional Inhibitory Concentration Index Cutoffs for Additive Interactions Based on Self-Drug Additive Combinations, Monte Carlo Simulation Analysis and in vitro-in vivo Correlation Data for Antifungal Drug Combinations Against Aspergillus fumigatus, AAC 54:602-09 (2010).
FICI=FICA+FICB=(CA/MICA)+(CB/MICB)
As each checkerboard gives a number of FICI values, an arithmetic mean is calculated from all values to give the mean FICI for two agents combined against one isolate. Mean FICIs were interpreted by the following criteria given by Odds (2003) which are now the accepted criteria by most journals: […]

In the case of CC(C)(O/N=C(\C(=O)N[C@@H]1C(=O)N2C(C(=O)[O-])=C(C[n+]3ccccc3)CS[C@H]12)c1csc(N)n1)C(=O)O [ceftazidime, (6R,7R)-7-[[(2Z)-2-(2-amino-1,3-thiazol-4-yl)-2-(1-hydroxy-2-methyl-1-oxopropan-2-yl)oxyiminoacetyl]amino]-8-oxo-3-(pyridin-1-ium-1-ylmethyl)-5-thia-1-azabicyclo[4.2.0]oct-2-ene-2-carboxylate pentahydrate], the “Mean FICI” value (with Col, isolate 13 K. pneumoniae KPC-3) is reported as 1.26, the “Mean FICI” value (with Lev, isolate 11 K. pneumoniae CTX-M-15) is reported as 1.21 and the “Mean FICI” value (with Lev, isolate 12 K. pneumoniae SHV-12) is reported as 1.16. For the same compound, the “Mean FICI” value (with Lev, isolate 13 K. pneumoniae KPC-3) was 1.24, the “Mean FICI” value (with Lev, isolate 14 K. pneumoniae KPC-3) was 1.26 and the “Mean FICI” value (with Lev, isolate 15 K. pneumoniae KPC-2) was 1.26. The “Mean FICI” value (with Tig, isolate 9 K. pneumoniae Basal MICs) was 1.16, the “Mean FICI” value (with Tig, isolate 10 K. pneumoniae TEM-4) was 1.32 and the “Mean FICI” value (with Tig, isolate 15 K. pneumoniae KPC-2) was 1.23.
